PGC1a acetyl inh – PGC1a acetylation modulation, inhibitor mode | 0.17% of 350,000 active | inhibition, % at 15.6 µM | U2OS PGC1a acetylation, AlphaScreen anti-acetyl-lysine; with virally co-expressed GCN5 acetyltransferase | AID 651687;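 active = every replicate shows inhibition of at least 40%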;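 also: 0% = neutral control wells and 100% = positive control wells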
UUG fidelity – modulators of start codon recognition fidelity in yeast; AID 602363; activity score, % at 18.7 µM; S. cerevisiae UUG-firefly luciferase reporter, luminescence/redox ratio; actives 0.13% (n = 350,000);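 active = replicate mean at a twofold rise or more, about +100% in these data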;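 note: firefly luciferase made from a UUG start codon reports start codon fidelity; reporter light over untreated wells divided by growth signal over untreated wells; some hits fall short of that in this replicate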
E-sel inducer – E-selectin induction on HUVECs; P16581; HUVEC E-selectin immunofluorescence imaging; normalized: neutral wells 0, TNF-alpha wells 100; activation, % at 7.58 µM; 0.37% of 260,000 active;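 active = mean E-selectin-positive cell signal at least 10% of the positive control, reached in at least 60% of replicates, without over 20% cell loss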
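Read-out: % PE-positive cells | Test system: HUVEC | Doses: One compound dose added by pin transfer | Buffer or medium: EGM-2 over gelatin coat | Signal: Immunofluorescence imaging | Benchmarks: TNF-alpha, DMSO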
Statin myotox sup – suppression of simvastatin myotoxicity. rescue of ATP level, % at 7.49 µM. 0.78% of 330,000 active. AID 602340. C2C12 myotubes + simvastatin, ATP luminescence, 48 h; scaled: DMSO 0, geranylgeraniol control 100;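 active = mean ATP rescue above about 67%, or every replicate alone reaching that limit, limit read from the data, passing the limit was not always enough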;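 also: myotubes were challenged with 10 µM simvastatin during compound exposure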
PglD DTNB – inhibitors of Campylobacter jejuni PglD acetyltransferase; purified PglD enzyme, DTNB colorimetric CoA detection; inhibition, % at 12.5 µM; 0.098% of 360,000 active; AID 602405; in the data active = inhibition above about 16%, passing the limit was not always enough
esBAF inh – blocks esBAF chromatin remodeling in mouse ES cells; Bmi1-luciferase knock-in reporter, 24 h; 100% = twice the neutral-well signal; AID 602393; reporter increase, % at 12.5 µM; 2% of 350,000 active; in the data active = activation above about 40%;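 also: 0% = median of the plate's neutral control wells and 100% = double that signal; a rise in the Bmi1 reporter signal indicates esBAF inhibition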
PglD inh SP – blocks Campylobacter jejuni PglD acetyltransferase activity; inhibition, % at 20 µM; shares compounds with PglD DTNB; 320 tested, under 10 active; Purified C. jejuni PglD, DTNB absorbance 412 nm;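 active = mean inhibition across replicates of at least 20% with every single replicate also at 20% or more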;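 also: initial rate of CoA release by acetyl transfer from AcCoA to the UDP-4-amino sugar; 0% = median of neutral control wells and 100% = median of positive control wells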
* hit, by the source's call; . = not tested or not shown. In the library only some 2.8% were active in any assay of this set; here they are far more common.

Key to letters: A = PGC1a acetyl inh; B = UUG fidelity; C = E-sel inducer; D = Statin myotox sup; E = PglD DTNB; F = esBAF inh; G = PglD inh SP
1. CCCC(=O)N1CC2(C1)CN(C(=O)Nc1c(C)noc1C)[C@@H](CO)c1c2c2ccc(OC)cc2n1C
  A: 5.1; B: .; C: -0.2; D: .; E: .; F: .; G: .

2. CC1C(=O)NN=C1c1ccc([N+](=O)[O-])cc1 (stereo not drawn)
  A: .; B: .; C: 0.9; D: .; E: .; F: .; G: .

3. CC1CN2C(c3ccc([N+](=O)[O-])cc3)=CSC2=N1 (stereo not drawn)
  A: 8.1; B: -13.0; C: .; D: 4.1; E: 74.9*; F: 1.1; G: 1.8

4. CCOc1ccc(NC(=O)NN2C(C)CCCC2C)cc1 (stereo not drawn)
  A: -4.1; B: -1.0; C: 0.1; D: -3.3; E: 20.0*; F: -4.0; G: 6.2

5. CCOc1ccc(NC(=S)NN2C(C)CCCC2C)cc1 (stereo not drawn)
  A: 2.4; B: -29.2; C: .; D: .; E: 2.1; F: .; G: .

6. O=C(O)CC1(CC(=O)Nc2ccc3c(c2)C(=O)OC3)CCCCC1
  A: -0.6; B: 15.7; C: 3.1; D: .; E: 21.1*; F: .; G: -2.8

7. O=C(c1cccc(F)c1)N1CCCCN2[C@@H](CO)[C@H](c3ccc(C#CC4(O)CCCC4)cc3)[C@@H]2C1
  A: 3.2; B: 14.1; C: 0.0; D: -3.8; E: 2.9; F: 1.9; G: .

8. COc1cccc(S(=O)(=O)Nc2ccc3c(c2)[C@@H]2C[C@H](CC(=O)NCc4ccc(Cl)cc4)O[C@@H](CO)[C@@H]2O3)c1
  A: -14.4; B: .; C: -0.3; D: -1.7; E: -3.0; F: -21.5; G: .

9. CCc1ccc(/C=C2\SC(=S)N(CCC(=O)Nc3cc(C)on3)C2=O)cc1
  A: .; B: .; C: 0.0; D: .; E: .; F: .; G: .

10. CCc1ccc(/C=C2\SC(=S)N(CCCC(=O)Nc3cc(C)on3)C2=O)cc1
  A: -4.0; B: -10.7; C: 0.1; D: 44.4; E: 21.0*; F: -68.7; G: -2.3

11. O=C1CN(S(=O)(=O)c2ccccc2)C[C@H]2[C@@H](c3ccc(C#CCc4ccccc4)cc3)[C@@H](CO)N12
  A: 6.9; B: .; C: 0.1; D: .; E: .; F: .; G: .

12. COC(=O)C1SCC2C(=O)N(Cc3cccc(C)c3)CC(=O)N21 (stereo not drawn)
  A: 10.8; B: -4.6; C: .; D: .; E: -27.3; F: .; G: .

13. COC(=O)C1SCC2C(=O)N(Cc3ccc(F)cc3)CC(=O)N21 (stereo not drawn)
  A: 1.8; B: -14.3; C: .; D: .; E: 26.3*; F: .; G: 5.2

14. COC(=O)c1cccc(NC(=S)NCCC2=CCCCC2)c1
  A: .; B: -26.6; C: .; D: 7.3; E: 66.2*; F: 2.5; G: 2.1

15. Cc1ccc2nc(/C(C#N)=C/c3ccc(O)c(O)c3)[nH]c2c1
  A: -6.5; B: -11.9; C: .; D: 3.7; E: -1.2; F: 17.0; G: .

16. Cc1ccc2nc(/C(C#N)=N/O)[nH]c2c1
  A: 6.5; B: -24.1; C: .; D: -1.0; E: 37.8*; F: 1.6; G: -12.1

17. Cn1nc([N+](=O)[O-])nc1N1CCOCC1
  A: 8.4; B: -14.2; C: .; D: 8.6; E: 21.3*; F: 12.8; G: 1.2

18. Cc1ccc(S(=O)(=O)N(C)C)cc1NC(=O)CSc1nnnn1-c1ccc(O)cc1
  A: 7.1; B: 9.4; C: -2.2; D: 52.6; E: 28.0*; F: -11.4; G: -8.0

19. CN(C)S(=O)(=O)c1ccc(Cl)c(NC(=O)CSc2nnnn2-c2ccc(O)cc2)c1
  A: .; B: .; C: 2.2; D: .; E: .; F: .; G: .

20. C[C@H](CO)N1C[C@H](C)[C@@H](CN(C)CC2CC2)OCCCC[C@H](C)Oc2ccc(NS(=O)(=O)c3ccccc3)cc2C1=O
  A: 14.3; B: .; C: 0.4; D: .; E: -8.3; F: 2.5; G: .

21. O=C(NC1CC1)c1cccc(NC(=O)C2CCCCC2)c1
  A: 1.9; B: -14.0; C: -0.4; D: -4.0; E: -1.0; F: -0.8; G: .

22. O=C(NC1CCCCC1)c1cccc(NC(=O)c2ccccc2Cl)c1
  A: 4.0; B: -19.7; C: 0.0; D: -117.3; E: 22.2*; F: -1.9; G: 1.3

23. Cc1c2c(nc3ccccc13)CCC(C(C)(C)C)C2 (stereo not drawn)
  A: 0.4; B: .; C: .; D: .; E: .; F: .; G: .

24. CC(C)(C)C1CCc2[nH]c3ccccc3c(=O)c2C1 (stereo not drawn)
  A: -3.5; B: -14.2; C: .; D: -34.8; E: 28.0*; F: 20.2; G: -1.7

25. Nc1n[nH]c(-c2ccccc2)c1-c1ccccc1
  A: 1.0; B: -17.1; C: .; D: -9.1; E: 32.5*; F: 1.8; G: -3.2

Next part, overlapping the part above by three compounds.
Key to letters: A = PGC1a acetyl inh; B = UUG fidelity; C = E-sel inducer; D = Statin myotox sup; E = PglD DTNB; F = esBAF inh; G = PglD inh SP
23. Cc1c2c(nc3ccccc13)CCC(C(C)(C)C)C2 (stereo not drawn)
  A: 0.4; B: .; C: .; D: .; E: .; F: .; G: .

24. CC(C)(C)C1CCc2[nH]c3ccccc3c(=O)c2C1 (stereo not drawn)
  A: -3.5; B: -14.2; C: .; D: -34.8; E: 28.0*; F: 20.2; G: -1.7

25. Nc1n[nH]c(-c2ccccc2)c1-c1ccccc1
  A: 1.0; B: -17.1; C: .; D: -9.1; E: 32.5*; F: 1.8; G: -3.2

26. Nc1n[nH]c(C(F)(F)F)c1-c1ccccc1
  A: 10.7; B: -7.0; C: .; D: 11.2; E: -7.3; F: -6.1; G: .

27. COCC(=O)Nc1ccc2c(c1)C(=O)N(C)[C@H]1CC[C@H](CC(=O)NCc3ccc(OC)cc3)O[C@H]1CO2
  A: -3.7; B: -7.2; C: 0.1; D: -3.4; E: 2.0; F: 3.1; G: .

28. Cc1ccc(N(CC(=O)NC(C)c2ccccc2)S(=O)(=O)c2c(C)noc2C)cc1 (stereo not drawn)
  A: .; B: -21.3; C: -0.2; D: -4.1; E: 27.2*; F: 3.5; G: -5.2

29. C[C@@H]1CN([C@@H](C)CO)C(=O)c2cc(NC(=O)Cc3ccccc3)ccc2O[C@@H](C)CCCCO[C@@H]1CN(C)Cc1ccc(C(=O)O)cc1
  A: 26.0; B: 1.2; C: 0.0; D: .; E: 2.3; F: -3.3; G: .

30. C[C@H](CO)N1C[C@H](C)[C@@H](CN(C)C(=O)C2CCCCC2)Oc2ncc(-c3ccncc3)cc2C1=O
  A: 1.4; B: -9.0; C: 0.1; D: -5.0; E: 2.6; F: -2.0; G: .

31. O=C(CSc1nnc(-c2ccncc2)n1Cc1ccccc1)Nc1nccs1
  A: -36.0; B: -24.6; C: .; D: -2.8; E: 48.1*; F: 1.3; G: 2.4

32. C#CC1CCCCC1NC(=O)Nc1cnccc1C(F)(F)F (stereo not drawn)
  A: .; B: -7.5; C: .; D: 2.5; E: 20.1*; F: -2.5; G: -2.2

33. C/C(=N/OCO/N=C(/C)c1ccc(F)cc1)c1ccc(F)cc1
  A: 2.5; B: -21.0; C: 1.6; D: .; E: 25.9*; F: .; G: -0.3

34. CN1C(=O)c2cc(NC(=O)C3CCOCC3)ccc2OC[C@H]2O[C@H](CC(=O)NCc3ccc4c(c3)OCO4)CC[C@@H]21
  A: .; B: .; C: 0.2; D: -8.1; E: 3.2; F: -4.2; G: .

35. CCOC(=O)c1sc(N(Cc2ccccc2)C(=O)CSc2ncn[nH]2)nc1C
  A: -27.0; B: -13.7; C: .; D: 8.1; E: 21.5*; F: 4.9; G: 0.0

36. CO[C@@H]1CN(C)C(=O)c2cc(NC(=O)c3ccc(F)cc3)ccc2OC[C@H](C)N(C(=O)CN(C)C)C[C@@H]1C
  A: -2.1; B: -6.8; C: -0.1; D: 12.9; E: -2.3; F: 0.9; G: .

37. C[C@H](CO)N1C[C@H](C)[C@H](CN(C)S(C)(=O)=O)Oc2ccc(NS(C)(=O)=O)cc2C1=O
  A: 4.1; B: -7.8; C: -0.9; D: 0.2; E: -1.7; F: -1.0; G: .

38. CC(=O)C1=C(O)C(=O)N(c2ccc(F)cc2)C1c1ccc(C)cc1 (stereo not drawn)
  A: .; B: -15.3; C: -0.2; D: 4.1; E: -3.1; F: 11.5; G: .

39. CC(=O)C1=C(O)C(=O)N(c2cccc(C(=O)O)c2)C1c1ccc(F)cc1 (stereo not drawn)
  A: 3.3; B: -16.5; C: 0.3; D: .; E: 20.6*; F: .; G: -2.5

40. COc1ccccc1CNC(=O)c1cc2ccccc2o1
  A: 7.3; B: -11.2; C: .; D: -5.1; E: 7.3; F: -1.9; G: .

41. COc1ccccc1CNC(=O)c1cc2ccccc2oc1=O
  A: .; B: -0.9; C: 0.3; D: .; E: 32.0*; F: .; G: 8.3

42. COc1ccc(C(CNc2ccc(S(C)(=O)=O)cc2[N+](=O)[O-])N(C)C)cc1OC (stereo not drawn)
  A: -9.6; B: -26.5; C: -0.1; D: -6.8; E: 22.7*; F: 1.4; G: 1.9

43. O=C1c2ccc(Br)cc2C(=O)N1c1ccc(Cl)cn1
  A: 8.0; B: -0.9; C: 0.2; D: 1.5; E: -2.4; F: 1.3; G: .

44. Cc1nnc(N2C(=O)c3ccc(Br)cc3C2=O)s1
  A: -2.4; B: -4.0; C: .; D: 0.6; E: 21.6*; F: -4.2; G: 2.3

45. Nc1c(N2CCCC2)c2ccccc2oc1=O
  A: -0.3; B: 1.3; C: .; D: .; E: 20.5*; F: .; G: -3.9
